Data on 1 substance can be found in patent US20080269266A1, “NOVEL COMPOUNDS 747” (ASTRAZENECA AB, priority 2007, published 2008).

Amino acid sequences for entries named in this document (tags omitted).
UniProt P11712, whole entry: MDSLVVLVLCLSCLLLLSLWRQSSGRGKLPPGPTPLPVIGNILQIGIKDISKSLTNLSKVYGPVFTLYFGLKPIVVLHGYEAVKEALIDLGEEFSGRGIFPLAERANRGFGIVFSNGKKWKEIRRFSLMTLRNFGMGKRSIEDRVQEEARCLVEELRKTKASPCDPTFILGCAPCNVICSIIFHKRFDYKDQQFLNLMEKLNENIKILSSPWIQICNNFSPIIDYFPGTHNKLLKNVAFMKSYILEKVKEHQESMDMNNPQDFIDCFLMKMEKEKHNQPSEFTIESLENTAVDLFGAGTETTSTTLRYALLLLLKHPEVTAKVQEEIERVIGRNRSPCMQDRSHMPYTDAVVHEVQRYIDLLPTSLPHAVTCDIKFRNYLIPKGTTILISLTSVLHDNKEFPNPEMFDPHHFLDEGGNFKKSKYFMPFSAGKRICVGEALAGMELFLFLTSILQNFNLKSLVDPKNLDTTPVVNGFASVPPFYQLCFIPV

This data set has as its target human cytochrome P450 (CYP) 2C9 (Homo sapiens, UniProt P11712). The data set is described as follows: Cytochrome P450 Inhibition Assay 2C9. Conditions: read-out: IC50 range, CYP 2C9; expected IC50 range of known inhibitor (positive control); substrate 50 μM. The method, then: The inhibitory potential (IC50) of test compounds against 5 human cytochrome P450 (CYP) isoforms (1A2, 2C9, 2C19, 3A4 and 2D6) was assessed using an automated fluorescent end point in vitro assay modified from Crespi (Crespi and Stresser, 2000). Microsomal subcellular fractions prepared from Yeast cell lines expressing each human CYP isoform were used as an enzyme source in this assay. The activity of the 5 major human CYPs was determined from the biotransformation of a number of coumarin substrates to fluorescent metabolites, in the presence of NADPH. […] Stock solutions of each CYP, with its respective substrate, were prepared in phosphate buffer pH7.4 (see Table 1) and 178 μl was added to the well of a black solid, flat bottom, 300 μl 96 well is microtitre plate (Corning Costar). […] After pre-incubating at 37° C. for 5 min the reactions were started with addition of NADPH (20 μl, concentration shown in Table 1). […] The appropriate solvent controls and substrate blanks were included in each experiment to assess control activity and identify any inherent fluorescence due to the test compounds. […] The plates were read on a fluorimeter (Spectrafluor Plus) at the appropriate excitation and emission wavelengths (listed in Table 2) and the percent activity, corrected for control, was plotted against the test compound concentration.

Regarding Sulphaphenazole, the concentration for half-maximal inhibition (IC50) lay within 100 to 1000 nM.

As usually defined, the IC50 is the concentration at which inhibition is half-maximal.
